Values of other authors as cited in patent US8003847B2, “Non-human mutant mammals deficient in Sigma receptors and their applications” (Laboratorios Del Dr. Esteve, S.A., priority 2002, dated 2011).

The chains behind the UniProt entries cited, without tags or fusion partners.
UniProt Q99720, whole entry: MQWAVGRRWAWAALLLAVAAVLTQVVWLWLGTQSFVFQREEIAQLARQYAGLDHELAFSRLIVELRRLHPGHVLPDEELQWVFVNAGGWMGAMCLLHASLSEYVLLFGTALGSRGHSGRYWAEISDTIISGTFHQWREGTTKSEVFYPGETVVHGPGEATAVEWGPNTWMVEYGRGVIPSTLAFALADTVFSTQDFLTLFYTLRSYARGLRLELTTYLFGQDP

Molecular target: type-1 Sigma receptors (Homo sapiens, UniProt Q99720)
Conditions: type-1 Sigma receptor, result in words; cited from earlier work

In the case of (+)-SKF10047, the affinity is listed as “high affinity”.
